The source of these data is ChEMBL document CHEMBL1132995, “High-affinity, non-peptide agonists for the ORL1 (orphanin FQ/nociceptin) receptor” (2000).

Sequences of proteins named here, by UniProt entry; tags and fusion partners are left off.
UniProt P35372, whole entry: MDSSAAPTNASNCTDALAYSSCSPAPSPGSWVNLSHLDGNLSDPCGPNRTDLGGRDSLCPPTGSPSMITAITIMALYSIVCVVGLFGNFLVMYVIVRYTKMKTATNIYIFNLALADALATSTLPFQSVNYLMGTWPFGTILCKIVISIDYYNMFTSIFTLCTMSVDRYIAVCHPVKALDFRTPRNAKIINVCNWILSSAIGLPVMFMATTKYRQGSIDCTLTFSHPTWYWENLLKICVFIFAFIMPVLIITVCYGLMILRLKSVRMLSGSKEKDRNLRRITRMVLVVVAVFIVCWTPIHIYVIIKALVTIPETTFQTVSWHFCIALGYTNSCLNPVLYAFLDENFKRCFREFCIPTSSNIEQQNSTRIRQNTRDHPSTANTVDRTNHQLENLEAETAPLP
UniProt P41146, whole entry: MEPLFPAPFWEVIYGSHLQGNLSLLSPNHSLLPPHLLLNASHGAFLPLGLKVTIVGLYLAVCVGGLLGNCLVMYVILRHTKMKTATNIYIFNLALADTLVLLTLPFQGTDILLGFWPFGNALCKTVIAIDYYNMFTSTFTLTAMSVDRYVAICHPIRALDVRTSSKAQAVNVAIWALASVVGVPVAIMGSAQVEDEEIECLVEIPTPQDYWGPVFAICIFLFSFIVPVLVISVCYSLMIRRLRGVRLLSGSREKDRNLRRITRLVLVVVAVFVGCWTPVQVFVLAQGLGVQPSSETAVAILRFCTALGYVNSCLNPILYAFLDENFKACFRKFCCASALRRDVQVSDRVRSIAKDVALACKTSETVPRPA
UniProt P41143, whole entry: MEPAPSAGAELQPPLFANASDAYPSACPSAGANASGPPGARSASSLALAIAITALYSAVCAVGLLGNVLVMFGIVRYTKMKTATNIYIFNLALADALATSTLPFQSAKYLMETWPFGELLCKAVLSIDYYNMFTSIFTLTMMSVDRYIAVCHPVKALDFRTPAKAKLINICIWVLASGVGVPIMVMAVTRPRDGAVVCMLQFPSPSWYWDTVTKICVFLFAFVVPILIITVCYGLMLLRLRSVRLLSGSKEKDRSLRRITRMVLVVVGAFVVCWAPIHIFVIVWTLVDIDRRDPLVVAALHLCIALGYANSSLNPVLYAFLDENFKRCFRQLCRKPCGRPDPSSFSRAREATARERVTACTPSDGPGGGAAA

As usually defined, the Ki is a dissociation constant, usually derived from enzyme kinetics or from competition with a known ligand. A lower Ki goes with tighter binding. The term EC50 denotes the concentration giving half of the maximal effect. A high value points to weaker potency.

The target in assay [1] is T1, Kappa-type opioid receptor (Homo sapiens, UniProt P41145). Description: Competitive binding displacement analyses was performed from permanently transfected HEK293 cells expressing human Opioid receptor kappa 1.
Assay [2] deals with T2, Mu-type opioid receptor (Homo sapiens, UniProt P35372). As to the kind of experiment: Competitive binding displacement analyses was performed from permanently transfected HEK293 cells expressing human Opioid receptor mu 1.
The target in assay [3] is T3, Nociceptin receptor (Homo sapiens, UniProt P41146). Description: Competitive binding affinity against transfected HEK293 cells expressing human Opioid receptor like 1.
In assay [4] the target is T4, Delta-type opioid receptor (Homo sapiens, UniProt P41143). As to the kind of experiment: Competitive binding displacement analyses was performed from permanently transfected HEK293 cells expressing human Opioid receptor delta 1.
Assay [5] concerns the target T3, Nociceptin receptor. Description: Effective concentration required to stimulate binding of GTPgammaS to Opioid receptor like 1 was determined using scintillation proximity assay. For orientation: Scintillation proximity formats need no separation of bound from free tracer.
Assay [6] deals with T1, Kappa-type opioid receptor. Description: Competitive binding displacement analyses was performed from permanently transfected HEK293 cells expressing Opioid receptor kappa 1.
For assay [7], the target named is T3, Nociceptin receptor. As to the kind of experiment: Effective concentration required to stimulate binding of GTPgammaS to ORL1 receptor was determined using scintillation proximity assay.
The target in assay [8] is T4, Delta-type opioid receptor. Description: Competitive binding displacement analyses was performed from permanently transfected HEK293 cells expressing Opioid receptor delta 1.
The target in assay [9] is T2, Mu-type opioid receptor. As to the kind of experiment: Competitive binding displacement analyses was performed from permanently transfected HEK293 cells expressing Opioid receptor mu 1.
For assay [10], the target named is T3, Nociceptin receptor. Description: Competitive binding affinity against transfected HEK293 cells expressing Opioid receptor like 1.
Assay [11] has as its target T2, Mu-type opioid receptor. Description: Effective concentration of the required to stimulate binding of GTPgammaS to mu1 receptor was determined using scintillation proximity assay.
Assay [12] concerns the target T2, Mu-type opioid receptor. Description: Effective concentration of the required to stimulate binding of GTPgammaS to human mu1 receptor was determined using scintillation proximity assay.
In assay [13] the target is T3, Nociceptin receptor. Description: Effective concentration required to stimulate binding of GTPgammaS to human ORL1 receptor was determined using scintillation proximity assay.

Turning to `O=C1NCN(c2ccccc2)C12CCN([C@@H]1CCc3c(Cl)ccc(Cl)c3C1)CC2`, the Ki in assay [1] was 47.3 nM; on Mu-type opioid receptor [2], 8.4 nM; on Nociceptin receptor [3], 20.7 nM; in assay [4], 587 nM.
Consider `C=CCN1CN(c2ccccc2)C2(CCN(C3CCc4c(Cl)ccc(Cl)c4C3)CC2)C1=O` (centres undefined), for which the inhibitory constant (Ki) in assay [1] worked out at 26.2 nM; on Mu-type opioid receptor [2], 5.9 nM; on Nociceptin receptor [3], 6.8 nM.
As for `O=C1NCN(c2ccccc2)C12CCN(C1Cc3ccccc3C1)CC2`, the Ki in [1] was 161 nM; on Mu-type opioid receptor [2], 26 nM; on Nociceptin receptor [3], 2.5 nM; in [4] it was 710 nM. For the same compound, the EC50 at Nociceptin receptor [5] was determined as 500 nM.
With `O=C1NCN(c2ccccc2)C12CCN(C1CCc3ccccc31)CC2` (centres undefined), the inhibitory constant (Ki) in assay [6] was 5.3 nM; in [8], 540 nM; at Mu-type opioid receptor [9], 3.4 nM; at Nociceptin receptor [10], 0.7 nM. In addition, the EC50 on Nociceptin receptor [7] is 7900 nM.
As for `O=C1NCN(c2ccccc2)C12CCN(C1CCc3c(Cl)cccc3C1)CC2` (centres undefined), the inhibition constant (Ki) in assay [1] is 20.7 nM; on Mu-type opioid receptor [2] it was 8.9 nM; on Nociceptin receptor [3], 2.9 nM; in assay [4], 450 nM.
For the compound `O=C1N(CCO)CN(c2ccccc2)C12CCN(C1CCc3cccc(Cl)c3C1)CC2` (centres undefined), the Ki in assay [1] was 16.4 nM; on Mu-type opioid receptor [2], 3.3 nM; on Nociceptin receptor [3], 7.2 nM; in [4], 285 nM.
In the same order, the values of `O=C1NCN(c2ccccc2)C12CCN([C@H]1CCc3c(Cl)ccc(Cl)c3C1)CC2` are 40.1 nM, 5.9 nM, 2.8 nM and 415 nM.
Turning to `COCN1CN(c2ccccc2)C2(CCN(C3CCc4cccc(Cl)c4C3)CC2)C1=O` (centres undefined), the Ki is 17.5 nM in assay [6], 240 nM in assay [8], 7.5 nM at Mu-type opioid receptor [9] and 8.5 nM on Nociceptin receptor [10].
Consider `O=C1NCN(c2ccccc2)C12CCN(C1Cc3cccc4cccc1c34)CC2` (centres undefined), for which, at Mu-type opioid receptor [11], the EC50 came to 2500 nM.
Consider `O=C1NCN(c2ccccc2)C12CCN(C1CCc3c(Cl)ccc(Cl)c3C1)CC2` (centres undefined), for which the Ki in [1] was determined as 44.2 nM; on Mu-type opioid receptor [2], 7.2 nM; at Nociceptin receptor [3] it was 5.6 nM; in assay [4], 680 nM. Further, the concentration giving a half-maximal response (EC50) on Mu-type opioid receptor [12] was 310 nM; on Nociceptin receptor [13] it was 1500 nM.
Consider `CN1CN(c2ccccc2)C2(CCN(C3CCc4c(Cl)ccc(Cl)c4C3)CC2)C1=O` (centres undefined), for which the Ki was 17 nM in assay [1], 2.6 nM at Mu-type opioid receptor [2], 3.3 nM on Nociceptin receptor [3] and 313 nM in assay [4].
